For the assay, the target named is T1, Cytochrome P450 2A6 (Homo sapiens, UniProt P11509).
T1 sequence (P11509 whole entry): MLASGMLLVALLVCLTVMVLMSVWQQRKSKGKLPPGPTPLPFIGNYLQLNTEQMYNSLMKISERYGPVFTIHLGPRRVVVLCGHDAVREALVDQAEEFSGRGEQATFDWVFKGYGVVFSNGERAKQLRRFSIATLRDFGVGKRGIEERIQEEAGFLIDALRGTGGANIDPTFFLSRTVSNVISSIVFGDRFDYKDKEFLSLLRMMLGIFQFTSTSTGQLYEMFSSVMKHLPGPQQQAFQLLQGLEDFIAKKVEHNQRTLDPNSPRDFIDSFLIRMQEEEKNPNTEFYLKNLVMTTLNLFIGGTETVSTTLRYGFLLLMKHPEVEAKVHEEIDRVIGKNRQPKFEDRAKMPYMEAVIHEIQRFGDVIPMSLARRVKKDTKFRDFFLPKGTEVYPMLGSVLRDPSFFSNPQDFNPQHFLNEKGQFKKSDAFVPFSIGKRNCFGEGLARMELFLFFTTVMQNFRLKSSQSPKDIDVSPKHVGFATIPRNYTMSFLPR
Description: Inhibition of CYP2A6 in human liver microsomes assessed as reduction in CYP2A6-mediated nicotine oxidase activity using [3H]-nicotine in presence of NADPH-generating system incubated for 20 mins by TLC/radiometric assay. (In general: Liver microsomes are a subcellular fraction often used to study metabolism.)

For orientation: IC50 means the point on the concentration scale where inhibition reaches its midpoint.

For `N[C@@H]1C[C@H]1c1ccccc1.N[C@H]1C[C@@H]1c1ccccc1` [TRANYLCYPROMINE], the IC50 is 80 nM.

The values are drawn from ChEMBL document CHEMBL4421730, “Synthetic compounds and derivatives as modulators of smoking or nicotine ingestion and lung cancer” (2013).
